Test results from patent US11135236B2, “Retinoic acid receptor gamma agonists to attenuate anthracycline-induced cardiotoxicity” (Northwestern University, priority 2018, dated 2021).

How the values were obtained:
[1] = test system: RARG expression and TOP2B signaling; assay: real-time PCR of RARG expression and TOP2B signaling in S427L hiPSC-CMs; assay type: cell-based, human; conditions: 1 μM CD1530, 3 μM doxorubicin 24 h
Method: Quantitative Real-time PCR. […] All PCR reactions were performed in triplicate in a 384-well plate format using TaqMan Gene Expression Master Mix in a QuantStudio 5 Real-Time PCR System (both Applied Biosystems) with following TaqMan Gene Expression Assays (Life Technoloiges): 18S (Hs99999901_s1), ACTB (Hs01060665_g1), GAPDH (Hs02786624_g1), NANOG (Hs02387400_g1), POU5F1 (Hs00999632_g1), SOX2 (Hs01053049_s1), KLF4 (Hs00358836_m1), LIN28 (Hs00702808_s1), MYC (Hs00153408_m1), UTF1 (Hs00747497_g1), DNMT3B (Hs01003405_m1), TERT (Hs99999022_m1), ZFP42 (Hs00399279_m1), TP53 (Hs99999147_m1), RARG (Hs01559234_m1), TOP2B (Hs00172259_m1), PPARGC1A (Hs00173304) and PPARGC1B (Hs00993805_m1). Relative quantification of gene expression was calculated using 2^−ΔΔCt method (Schmittgen and Livak, 2008), normalized to the reference 18S, ACTB, or GAPDH and untreated control samples as specified in the figure legends.

S427L-1 hiPSC-CMs = conditions: for S427L-1: LD50: 72 h
S427L hiPSC-CMs [2] = assay: caspase 3 and 7 activity after 24 h doxorubicin (Caspase 3/7-Glo); assay type: cell-based, human
S427L hiPSC-CMs [3] = assay: hiPSC-CM cell viability after 72 h doxorubicin (CellTiter-Glo); assay type: cell-based, human
[4] = doxorubicin LD50 with agonist 0.3 μM pre/co-treatment, 0 μM agonist: 0.600
[5] = doxorubicin LD50 with agonist 1 μM pre/co-treatment, 0 μM agonist: 0.600
[6] = doxorubicin LD50 with agonist 10 μM pre/co-treatment, 0 μM agonist: 0.600

| Compound | RARG expression [1] | TOP2B expression [1] | genes involved in mitochondrial biogenesis [1] | increase of doxorubicin LD50 (S427L-1 hiPSC-CMs; S427L hiPSC-CMs, agonist 1 μM, 72 h doxorubicin) [fold] | S427L-1: LD50 (S427L-1 hiPSC-CMs; [4]) | S427L-1: LD50 (S427L-1 hiPSC-CMs; [5]) | S427L-1: LD50 (S427L-1 hiPSC-CMs; [6]) | effect on cell viability after doxorubicin treatment (S427L-1 hiPSC-CMs; pre/co-treatment 0.3, 1, 10 μM, doxorubicin 72 h, hiPSC-CMs) | LD50, caspase 3 and 7 activity (S427L hiPSC-CMs [2]) [µM] | half-maximal lethal dose (LD50), cell viability (S427L hiPSC-CMs [3]) [µM] | S427L-1: LD50 (S427L-1 hiPSC-CMs; doxorubicin LD50, agonist 0 μM) [µM] |
| --- | --- | --- | --- | --- | --- | --- | --- | --- | --- | --- | --- |
| O=C(O)c1ccc(-c2ccc3cc(O)c(C45CC6CC(CC(C6)C4)C5)cc3c2)cc1 [CD1530, 4-(6-Hydroxy-7-tricyclo[3.3.1.13,7]dec-1-yl-2-naphthalenyl)benzoic acid] | increased RARG expression | repressed TOP2B expression | upregulated | 7 | 1.520** μM | 4.428*** μM | 4.537*** μM | most effective | – | – | – |
| CC1=C(/C=C/C(C)=C/C=C/C(C)=C/C(=O)O)C(C)(C)CCC1 [ATRA, 3,7-Dimethyl-9-(2,6,6-trimethyl-1-cyclohexen-1-yl)-2E,4E,6E,8E-nonatetraenoic acid] | – | – | – | – | 0.951** μM | 2.111*** μM | 2.750*** μM | – | – | – | – |
| O=C(O)c1ccc2cc(-c3ccc(O)c(C45CC6CC(CC(C6)C4)C5)c3)ccc2c1 [CD437, 6-(4-Hydroxy-3-tricyclo[3.3.1.13,7]dec-1-ylphenyl)-2-naphthalenecarboxylic acid] | – | – | – | – | 2.772** μM | 1.692*** μM | 1.558*** μM | – | – | – | – |
| COc1cccc2c1C(=O)c1c(O)c3c(c(O)c1C2=O)C[C@@](O)(C(=O)CO)C[C@@H]3O[C@H]1C[C@H](N)[C@H](O)[C@H](C)O1 [doxorubicin] | – | – | – | – | – | – | – | – | 1.228 | 0.63 | 0.600 |

Where two headings read alike, the source gives them in different places. Marks after values point to notes of the source that are not given here.
